Our source for the Kd values is PMC3776753, “The G32E Functional Variant Reduces Activity of PPARD by Nuclear Export and Post-Translational Modification in Pigs” (PLoS ONE, 2013).

By UniProt entry, the sequences of proteins in these tests, tags left out. Residues count along the entry.
UniProt A9XAM2, 1-441: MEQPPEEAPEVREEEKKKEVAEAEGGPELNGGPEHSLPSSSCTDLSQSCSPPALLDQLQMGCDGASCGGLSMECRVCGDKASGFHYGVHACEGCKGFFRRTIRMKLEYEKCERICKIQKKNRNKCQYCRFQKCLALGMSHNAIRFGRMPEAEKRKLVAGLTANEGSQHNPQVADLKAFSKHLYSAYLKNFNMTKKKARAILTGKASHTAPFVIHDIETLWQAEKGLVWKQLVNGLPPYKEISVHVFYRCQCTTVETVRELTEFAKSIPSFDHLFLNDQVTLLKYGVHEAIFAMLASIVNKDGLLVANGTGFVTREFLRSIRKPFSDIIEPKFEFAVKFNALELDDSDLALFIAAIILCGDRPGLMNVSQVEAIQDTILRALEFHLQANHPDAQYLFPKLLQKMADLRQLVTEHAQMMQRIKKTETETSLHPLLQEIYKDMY
UniProt A9XAM2, 1-441 G32E: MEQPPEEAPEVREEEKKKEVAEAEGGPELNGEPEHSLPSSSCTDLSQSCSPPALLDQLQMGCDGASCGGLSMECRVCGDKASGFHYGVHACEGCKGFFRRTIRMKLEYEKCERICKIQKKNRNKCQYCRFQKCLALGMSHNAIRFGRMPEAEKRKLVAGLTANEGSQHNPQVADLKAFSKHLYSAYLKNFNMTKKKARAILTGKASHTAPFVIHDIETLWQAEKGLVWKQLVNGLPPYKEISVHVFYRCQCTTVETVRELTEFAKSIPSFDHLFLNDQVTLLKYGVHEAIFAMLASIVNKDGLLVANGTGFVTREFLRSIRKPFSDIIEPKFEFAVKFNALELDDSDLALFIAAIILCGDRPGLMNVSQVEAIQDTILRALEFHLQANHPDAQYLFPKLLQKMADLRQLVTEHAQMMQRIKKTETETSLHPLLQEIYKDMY

By Kd is commonly meant the free concentration of one partner at which half of the binding sites on the other are occupied at equilibrium, for simple one-to-one binding.

The target of test [1] is T1, peroxisome proliferator-activated receptor beta/delta (sPPARD), wild-type (Sus scrofa, UniProt A9XAM2).
T1 construct: gene PPARD
As to the kind of experiment: biochemical.

Test [2] has as its target T2, peroxisome proliferator-activated receptor beta/delta (sPPARD), G32E mutant (Sus scrofa, UniProt A9XAM2, G32E).
T2 construct: gene PPARD
As to the kind of experiment: biochemical.

As to `Cc1cc(SCc2sc(-c3ccc(C(F)(F)F)c(F)c3)nc2C)ccc1OCC(=O)O` [GW0742], the Kd in test [1] was determined as 44.9 nM; in test [2], 97.9 nM.
